Consider two compounds from patent US11597726B2 (Certego Therapeutics Inc., priority 2020, dated 2023).

The assay relates to c-fos. Briefly: Pharmacomapping: whole-brain drug-evoked c-fos activation. Conditions: for doses at which strong activation of the caudoputamen (CP) is seen: gaboxadol tested at 6 to 50 mg/kg, d2-gaboxadol at 6 to 30 mg/kg.
[1] abbreviates: gaboxadol at 30 mg/kg and higher, d2-gaboxadol at 10 mg/kg and higher.
Where [2] appears, read: gaboxadol at 10 and 20 mg/kg, d2-gaboxadol at 6 mg/kg.

For `[2H]C1([2H])NCCc2c1o[nH]c2=O` [d2-gaboxadol 7,7, 4,5,6,7-tetrahydroisoxazolo[5,4-c]pyridin-3(2H)-one-7,7-d2], the “doses at which strong activation of the caudoputamen (CP) is seen” value is “already at 10 mg/kg as well as at 20 and 30 mg/kg”. Under setting [1], the “activation of medial orbital cortex (ORBm) and accessory olfactory nucleus (AON)” value (“activation of medial orbital cortex” for short) is listed as “strongly diminished”. In addition, under setting [2], the “activation of medial orbital cortex” value is on record as “Strong activation”.
Take `Oc1noc2c1CCNC2` [gaboxadol, 4,5,6,7-tetrahydroisoxazolo (5,4-c) pyridin-3-ol]: the “doses at which strong activation of the caudoputamen (CP) is seen” value was “only at higher doses of 30, 40 and 50 mg/kg”. Besides, under setting [1], the “activation of medial orbital cortex” value was “strongly diminished”. For the same compound, under setting [2], the “activation of medial orbital cortex” value is reported as “Strong activation”.
